Source: patent US8202555B2, “Natural pharmaceutical preparations for increasing albumin” (priority 2009, dated 2012)

Experiment: CCl4-induced liver injury (cirrhosis with ascites) in rats: serum proteins, ascites, fibrosis markers
Assay type: in vivo, rat
Conditions: 0.23 mg/kg

**Q.** What does the source list for `COc1cc2c(c(OC)c1OC)-c1ccc(OC)c(=O)cc1[C@@H](NC(C)=O)CC2` [Colchicine, colchicine]?
**A.** PCIII (CCl4 rats, serum, 4 weeks): 17.3 ± 4.2 ng/mL; HA (rat, in vivo): 172.9 ± 47.7 ng/mL; LN (rat, in vivo): 43.2 ± 13.8 ng/mL; TP (rat, in vivo): 55.2 ± 3.9 g/L
